The values that follow are results of earlier work, collected in patent US20100136097A1, “Systems for modulating inflammation” (Searete LLC, a limited liability corporation of the State …, priority 2008, published 2010).

Protein sequences, listed by entry. Tags and fused reporters are not part of them. Residues count along the entry.
UniProt P09619, 33-1106: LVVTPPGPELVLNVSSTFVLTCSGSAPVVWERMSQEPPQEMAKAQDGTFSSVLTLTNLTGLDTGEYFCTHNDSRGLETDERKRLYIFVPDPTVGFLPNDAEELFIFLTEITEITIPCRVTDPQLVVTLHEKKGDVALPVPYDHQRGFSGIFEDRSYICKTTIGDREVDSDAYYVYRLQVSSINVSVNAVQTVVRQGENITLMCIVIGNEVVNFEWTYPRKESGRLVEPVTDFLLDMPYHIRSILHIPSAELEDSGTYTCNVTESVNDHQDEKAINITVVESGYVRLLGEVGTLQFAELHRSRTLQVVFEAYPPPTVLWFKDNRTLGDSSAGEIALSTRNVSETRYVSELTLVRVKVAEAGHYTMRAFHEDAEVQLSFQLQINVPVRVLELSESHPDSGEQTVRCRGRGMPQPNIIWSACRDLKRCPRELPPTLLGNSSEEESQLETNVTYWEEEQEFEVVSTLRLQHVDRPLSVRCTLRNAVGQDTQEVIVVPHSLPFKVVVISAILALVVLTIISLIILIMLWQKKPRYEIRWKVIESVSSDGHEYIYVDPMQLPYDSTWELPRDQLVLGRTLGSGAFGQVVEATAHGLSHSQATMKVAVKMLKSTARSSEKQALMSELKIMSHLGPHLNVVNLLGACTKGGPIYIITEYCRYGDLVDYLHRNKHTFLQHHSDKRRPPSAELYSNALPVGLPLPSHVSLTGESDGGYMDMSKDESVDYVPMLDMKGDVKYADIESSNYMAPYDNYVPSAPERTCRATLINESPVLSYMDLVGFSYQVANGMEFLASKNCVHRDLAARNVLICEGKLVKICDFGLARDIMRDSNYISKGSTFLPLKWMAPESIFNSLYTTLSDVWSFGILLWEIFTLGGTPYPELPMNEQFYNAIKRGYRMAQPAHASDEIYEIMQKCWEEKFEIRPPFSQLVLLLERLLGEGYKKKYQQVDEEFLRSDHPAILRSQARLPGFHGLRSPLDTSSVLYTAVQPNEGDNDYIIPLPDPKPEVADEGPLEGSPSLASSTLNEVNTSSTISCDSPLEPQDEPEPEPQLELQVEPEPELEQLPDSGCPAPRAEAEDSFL
UniProt P10721, 26-976: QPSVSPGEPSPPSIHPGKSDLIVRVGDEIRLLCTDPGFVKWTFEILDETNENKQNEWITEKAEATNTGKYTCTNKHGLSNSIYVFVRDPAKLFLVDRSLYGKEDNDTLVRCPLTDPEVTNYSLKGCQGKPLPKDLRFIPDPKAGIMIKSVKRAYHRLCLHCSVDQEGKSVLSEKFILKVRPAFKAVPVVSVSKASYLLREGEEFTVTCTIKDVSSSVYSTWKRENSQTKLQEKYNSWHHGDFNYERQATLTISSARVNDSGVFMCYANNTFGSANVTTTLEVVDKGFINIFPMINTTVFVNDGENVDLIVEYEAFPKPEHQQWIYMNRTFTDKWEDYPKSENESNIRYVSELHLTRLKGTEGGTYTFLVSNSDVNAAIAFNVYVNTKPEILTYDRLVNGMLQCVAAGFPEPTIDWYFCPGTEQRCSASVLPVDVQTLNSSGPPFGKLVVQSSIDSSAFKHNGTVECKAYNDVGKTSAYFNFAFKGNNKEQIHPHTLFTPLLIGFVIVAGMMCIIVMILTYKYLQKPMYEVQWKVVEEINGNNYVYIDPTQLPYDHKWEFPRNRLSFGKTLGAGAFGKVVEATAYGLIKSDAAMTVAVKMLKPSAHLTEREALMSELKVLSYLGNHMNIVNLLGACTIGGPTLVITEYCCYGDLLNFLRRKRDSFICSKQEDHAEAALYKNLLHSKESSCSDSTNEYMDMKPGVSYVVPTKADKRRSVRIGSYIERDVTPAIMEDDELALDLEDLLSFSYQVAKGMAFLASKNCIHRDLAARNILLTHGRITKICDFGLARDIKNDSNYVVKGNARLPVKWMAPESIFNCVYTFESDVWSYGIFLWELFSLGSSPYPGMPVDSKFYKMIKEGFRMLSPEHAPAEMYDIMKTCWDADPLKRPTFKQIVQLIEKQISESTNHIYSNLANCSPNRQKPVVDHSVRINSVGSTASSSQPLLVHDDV

The target in one series is PDGFRβ (Homo sapiens, UniProt P09619). The note with it: at nanomolar concentrations.
The target of the next series is c-Kit (Homo sapiens, UniProt P10721). The note with it: at nanomolar concentrations.

With `Cc1nc(Nc2ncc(C(=O)Nc3c(C)cccc3Cl)s2)cc(N2CCN(CCO)CC2)n1.O` [dasatinib, N-(2-chloro-6-methylphenyl)-2-[[6-[4-(2-hydroxyethyl)-1-piperazinyl]-2-methyl-4-pyrimidinyl]amino]-5-thiazolecarboxamide, monohydrate], at PDGFRβ, the “inhibition of PDGFRβ” value is given as “inhibits”. The “inhibition of c-Kit” value at c-Kit is given as “inhibits”.
